Data as given in PubChem BioAssay AID504894 (National Center for Advancing Translational Sciences (NCATS), 2011).
This is a selection; strong and weak results do not stand in their true shares. Calls of active or inactive are those of the source. The call rests on the fitted dose curve; in most records, active means well fitted activation curve with a large enough effect; inconclusive means small, poorly fitted or top-dose-only effect, or another doubt; inactive means no such curve, though single readings can be large or run the other way.

test: Activators of T cell receptors: qHTS campaign; conditions: primary human leukocytes, anti-CD3, IL-2 HTRF, 48 h; at 9.22 µM (top of the series) unless noted; further: % of control where 0% means no effect
From the text: Normally activation of naive T cells requires two signals. 1. A signal through the T cell receptor (TCR) which provides antigen specificity to the response. 2. Signals through co-stimulatory molecules, which are necessary for proliferation, survival and cytokine production. In the absence of co-stimulatory signals T cells are not effectively activated, and may even be rendered anergic or unresponsive to subsequent signaling. This lack of costimulation has been shown in multiple model systems to be a major factor in the limited strength and effectiveness of anti-tumor T cell responses. The goal of this project is to identify small molecule compounds that will stimulate T cell activation in the presence of TCR signaling but in the absence of co-stimulatory signals, thereby allowing activation of naive T cells in the absence of co-stimulation. Identification of such compounds would have clear experimental and clinical applications in instances where desirable antigen-specific immune responses are not generated due to a lack of co-stimulation, for example in the generation of anti-tumor responses. In collaboration between the National Cancer Institute and NIH Chemical Genomics Center, a high-throughput amenable screen was developed to discover small molecules that co-stimulate and activate human T cell receptors. The screen will be carried out using a novel homogeneous time resolved fluorescence energy transfer (HTRF) assay to measure production of the cytokine IL-2 by activated T cells and will be tested against the NIH Molecular Libraries Small Molecule Repository (MLSMR). NIH Chemical Genomics Center [NCGC] NIH Molecular Libraries Probe Centers Network [MLPCN] MLPCN Grant: MH090820-01 Assay Submitter (PI): Richard Hodes, National Cancer Institute, NIH
Primary human leukocytes are incubated with a-CD3 beads and compounds for 48 hr. The amount of secreted IL-2 is then assayed with a HTRF IL-2 kit. The presence of IL-2 cytokine captures the detection reagents and brings the a-IL-2-K and a-IL-2-d2 into close proximity. Upon excitation with 320nm light, the europium cryptate is capable of transferring energy to acceptor molecules within close proximity, resulting in acceptor molecule emission at 665nm.

Structure (SMILES)	activation of IL-2 secretion
Cc1ccc(OP(=O)(Nc2ccc([N+](=O)[O-])cn2)Oc2ccc(C)cc2)cc1	inactive: 1.05%
C[As](=O)(O)c1cccc(C(=O)O)c1	inactive: -34.9%
O=[As](O)(c1ccc(O)cc1)c1ccccc1O	inactive: -6.12%
COc1cc(C(=O)NCC2(N3CCOCC3)CCCCC2)ccc1OCC(C)C	inactive: -0.502%
O=[N+]([O-])c1ccc(-c2cc([N+](=O)[O-])c(O)c([N+](=O)[O-])c2)cc1	inactive: -3.3%
CCN(CC)C(=S)SC(NC=O)C(Cl)(Cl)Cl (stereo not given)	inactive: -7%
CC(C)NC(=O)NP(=O)(Oc1ccccc1)Oc1ccccc1	inactive: -0.609%
O=[N+]([O-])c1cc([N+](=O)[O-])c(-c2ccn[nH]2)s1	inactive: 0.246% [at 46.1 µM]
CC(C)c1ccc(OP(=O)(Nc2ccccn2)Oc2ccccc2F)cc1 (stereo not given)	inactive: -2.7%
COC(=O)C1(C)COP(=O)(N2CCCCCC2)OC1 (stereo not given)	inactive: -1.78%
ClCCSc1nnc(-c2cccnc2)o1	inactive: -7.62% [at 46.1 µM]
CCCCOc1ccc(C(=O)NCC2(N3CCCCC3)CCCCC2)cc1OC	inactive: 3.99%
Cc1cc(SC(NC(=O)c2ccccc2)C(Cl)(Cl)Cl)nc(C(C)C)n1 (stereo not given)	inactive: 0.895% [at 46.1 µM]
CC1CCNP(=O)(N(CCCl)CCCl)O1 (stereo not given)	inactive: -2.37%
CCOC(=O)Nc1ccc([As](=O)(O)O)c(O)c1	inactive: -2.1%
O=[N+]([O-])c1ccc(Nc2ccc(Oc3ccc([N+](=O)[O-])cc3[N+](=O)[O-])cc2)c([N+](=O)[O-])c1	inactive: 1.41%
Cc1cc(SC(NC=O)C(Cl)(Cl)Cl)ncn1 (stereo not given)	inactive: 2.26%
O=P(Nc1ccccn1)(c1cccc2ccccc12)c1cccc2ccccc12	inactive: 5.57%
CCOC(=O)Nc1cccc([As](=O)(O)O)c1	inactive: -6.52%
O=C(COc1ccccc1)OC1CN2CCC1CC2 (stereo not given)	inactive: -6.3%
O=C(Nc1ccncc1[N+](=O)[O-])c1ccc([N+](=O)[O-])cc1[N+](=O)[O-]	inactive: -2.28%
COP1(=S)c2c(C)nn(CCC#N)c2N=C(c2ccc(F)cc2)N1C (stereo not given)	inactive: -8.71%
CCC(C)N(CC(C)C)C(=S)SC(NC(C)=O)C(Cl)(Cl)Cl (stereo not given)	inactive: -0.717% [at 46.1 µM]
CCOC(=O)c1ccc(NC(=O)C(C)(CCl)SC)cc1 (stereo not given)	inactive: -9.51%

Structure (SMILES)	activation of IL-2 secretion
O=C(OC1CN2CCC1CC2)c1cccc([N+](=O)[O-])c1 (stereo not given)	inactive: 6.51%
Clc1n[nH]nc1-c1nn[nH][15n]1	inactive: 4.43%
CC(C)(C)C(=O)NC(Sc1ncccn1)C(Cl)(Cl)Cl (stereo not given)	inactive: 2.23%
CN(CCCl)Cc1cc(Cl)c(NC2=NCCN2)c(Cl)c1	inactive: -6.03%
CCOP(=O)(Nc1ccc(C)cn1)OCC	inactive: -6.61%
CCC1=CC2Cc3nc4ccc(Cl)cc4c(N)c3C(C1)C2 (stereo not given)	inactive: -2.06%
O=P1(Nc2ccccn2)COc2ccccc2OC1	inactive: 21.3%
CCOP(=O)(NC(=NC(C)c1ccccc1)NC(C)c1ccccc1)OCC (stereo not given)	inactive: -5.8%
CC1(CBr)Cn2c(nc3ccccc3c2=O)S1 (stereo not given)	inactive: 0.414%
CN(C(=O)Cc1ccc(Cl)c(Cl)c1)[C@@H]1CCCC[C@H]1N1CCCC1	inactive: -13.8%
CC(C)/C=N\N=C(\N)N[N+](=O)[O-]	inactive: -12%
COc1ccccc1CNC(=O)COC(=O)C(O)(c1ccccc1)c1ccccc1	inactive: 3.55%
O=C(/C=C/c1ccccc1)OC1CN2CCC1CC2 (stereo not given)	inactive: -1.21%
CCCC1OP(=O)(Nc2ccccc2)OCC1CC (stereo not given)	inactive: 4.2%
Cc1nn(-c2ccccc2)c2c1P(=O)(N1CCOCC1)N(C)C(c1ccccc1)=N2 (stereo not given)	inactive: -4%
Cc1ccc(C(=O)OC2CN3CCC2CC3)cc1 (stereo not given)	inactive: 2.33%
CC1CCC(C(C)C)C(OP(=O)(Nc2ccccn2)c2ccccc2)C1 (stereo not given)	inactive: -1.98%
NS(=O)(=O)c1cccc(NC(=O)COC(=O)C(O)(c2ccccc2)c2ccccc2)c1	inactive: -1.5%
O=P1(Nc2ccc(Br)cn2)COc2ccccc2OC1	inactive: 0.117%
O=[As](O)(c1cccs1)c1cccs1	inactive: 5.21%
Cc1ccc(OCC(=O)OC2CN3CCC2CC3)cc1 (stereo not given)	inactive: 4.18%
Nc1cccc([As](=O)(O)c2ccccc2)c1	inactive: -3.7%
O=P1(Nc2ncccn2)COc2ccccc2OC1	inactive: -1.97%
O=C(O)COc1ccc([As](=O)(O)O)cc1[N+](=O)[O-]	inactive: -2.62%

Structure (SMILES)	activation of IL-2 secretion
Nc1ccccc1[As](=O)(O)c1ccccc1	inactive: 1.35%
CS(=O)(=O)c1cc([N+](=O)[O-])c2no[n+]([O-])c2c1	inactive: 4.19%
CCOP1(=S)c2c(C)nn(CCC#N)c2N=C(c2ccccc2F)N1C (stereo not given)	inactive: 4.46%
O=P(Nc1nccs1)(c1ccccc1)c1nc2ccccc2s1 (stereo not given)	inactive: 5.18%
O=P(Nc1nccs1)(Oc1ccccc1)Oc1ccccc1	inactive: -8.59%
CN(C)C(=O)c1cc([N+](=O)[O-])cc2c1-c1c(cc([N+](=O)[O-])cc1[N+](=O)[O-])C2=O	inactive: 10.8%
CN(C(=O)Cc1ccc(Cl)c(Cl)c1)[C@H]1CC[C@@]2(CCCO2)C[C@@H]1N1CCCC1	inactive: 0.521%
N#CCCN(C(=O)COC(=O)C(O)(c1ccccc1)c1ccccc1)c1ccc(F)cc1	inactive: 7.9%
CCOP1(=S)c2c(C)nn(CCC#N)c2N=C(c2ccc(F)cc2)N1C (stereo not given)	inactive: -13%
CN(C(=O)Cc1ccccc1)[C@@H]1CC[C@]2(CCCO2)C[C@H]1N1CCCC1	inactive: 1.85%
NC(=O)Nc1ccc([As](=O)(O)O)cc1	inactive: 2.57%
O=[As](O)(c1cccc(O)c1)c1cccc(O)c1	inactive: 1.65%
Cc1cccc(OCC(=O)OC2CN3CCC2CC3)c1 (stereo not given)	inactive: 0.343%
COc1cc(C(=O)NCC2(N3CCOCC3)CCCCC2)cc(Cl)c1OC(C)C	inactive: 1.85%
O=[As](O)(O)c1cccnc1	inactive: -0.0726%
CS(=O)(=O)c1ccc(Cl)c(NC(=O)COC(=O)C(O)(c2ccccc2)c2ccccc2)c1	inactive: -1.18%
O=C(OC1CN2CCC1CC2)c1ccc(Cl)cc1 (stereo not given)	inactive: 0.63%
COc1cc(C2NCCC3(OCCO3)C2(C)C)cc(OC)c1OC (stereo not given)	inactive: -5.66% [at 46.1 µM]
CCOP(=O)(Nc1cccc2ccccc12)OCC	inactive: 0.316% [at 46.1 µM]
CCCOP(=S)(Nc1nc(N)cc(=O)[nH]1)OCCC	inactive: -0.567%
Nc1cccc2c([As](=O)(O)O)cccc12	inactive: -5.68%
Cc1ccc(NCCc2c([N+](=O)[O-])cc([N+](=O)[O-])cc2[N+](=O)[O-])cc1	inactive: 6.72% [at 46.1 µM]
